Results: patent US20080312292A1, “Antipruritics” (priority 2002, published 2008)

The chains behind the UniProt entries cited, without tags or fusion partners.
UniProt P47746, whole entry: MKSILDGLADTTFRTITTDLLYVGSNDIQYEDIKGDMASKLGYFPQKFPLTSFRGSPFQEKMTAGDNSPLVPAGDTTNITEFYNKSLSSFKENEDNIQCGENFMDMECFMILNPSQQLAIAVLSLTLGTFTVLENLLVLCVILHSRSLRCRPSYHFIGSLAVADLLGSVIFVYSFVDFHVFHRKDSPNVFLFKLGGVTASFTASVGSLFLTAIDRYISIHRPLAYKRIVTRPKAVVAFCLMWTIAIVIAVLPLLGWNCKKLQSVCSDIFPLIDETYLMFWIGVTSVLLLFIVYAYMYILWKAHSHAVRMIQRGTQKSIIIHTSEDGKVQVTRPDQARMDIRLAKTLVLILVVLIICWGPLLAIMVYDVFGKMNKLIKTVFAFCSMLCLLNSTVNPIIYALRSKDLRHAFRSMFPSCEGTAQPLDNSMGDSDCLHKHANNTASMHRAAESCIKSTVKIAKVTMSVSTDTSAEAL

Target: T1, mouse CB1 receptor (Mus musculus, UniProt P47746)
T1 construct: The membrane fractions of mouse brain and spleen that abundantly express CB1 and CB2 receptor, respectively; from tissue; host or cells: mouse brain membrane fraction (C57BL/6 J)
Assay: Binding inhibitory activity to mouse cannabinoid receptors, brain membrane fraction
Set-up: species or system C57BL/6 J mice

CCCCCc1cc(O)c2c(c1)OC(C)(C)[C@@H]1CCC(C)=C[C@@H]21 [Δ^9-tetrahydrocannabinol, delta-9-tetrahydrocannabinol, reference compound]
Ki: 40 nM
